# ChEMBL document CHEMBL4138208, “Targeting tubulin polymerization by novel 7-aryl-pyrroloquinolinones: Synthesis, biological activity and SARs” (Eur J Med Chem, 2018)
# What was measured:
# [1] = Inhibition of bovine brain tubulin polymerization preincubated for 15 mins followed by GTP addition measured after 20 mins by spectrophotometric analysis; design: species or system Bos taurus
# [2] = test system: HeLa; test: Growth inhibition of human HeLa cells after 72 hrs by MTT assay; format: functional
# Procedure, shortened: (§1)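 Cells seeded at 8 × 10^3 per well and preincubated 18 h at 37 °C, 5% CO2. Leukemia lines were in RPMI-1640 and adherent lines in DMEM, each with 10% FBS plus penicillin/streptomycin. Medium replaced with compound at varying concentrations, in triplicate, for 72 h.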
# [3] = test system: A549; test: Growth inhibition of human A549 cells after 72 hrs by MTT assay; format: functional; settings: A549, 72 h; procedure, shortened: as §1
# [4] = test system: HT-29; test: Growth inhibition of human HT-29 cells after 72 hrs by MTT assay; format: functional; settings: HT-29, 72 h; procedure, shortened: as §1
# [5] = test system: MDA-MB-231; test: Growth inhibition of human MDA-MB-231 cells after 72 hrs by MTT assay; format: functional; settings: MDA-MB-231, 72 h; procedure, shortened: as §1
# [6] = test system: RS4-11; test: Growth inhibition of human RS4:11 cells after 72 hrs by MTT assay; format: functional; settings: RS4-11, 72 h; procedure, shortened: as §1
# [7] = test system: Jurkat; test: Growth inhibition of human Jurkat cells after 72 hrs by MTT assay; format: functional; procedure, shortened: as §1
# [8] = test system: Kasumi 1; test: Growth inhibition of human Kasumi-1 cells after 72 hrs by MTT assay; format: functional; settings: Kasumi 1, 72 h; procedure, shortened: as §1
# [9] = test system: PBL; settings: human, 72 h
# [10] = test system: PBL; settings: human, 72 h; remark: listed apart in the source
Structure (SMILES),IC50 [1] [nM],GI50 [2] [nM],GI50 [3] [nM],GI50 [4] [nM],GI50 [5] [nM],GI50 [6] [nM],GI50 [7] [nM],GI50 [8] [nM],GI50 [9] [nM],GI50 [10] [nM]
CCn1ccc2ccc3[nH]c(-c4ccccc4)cc(=O)c3c21,6200,–,–,–,–,–,–,–,–,–
CCn1ccc2c3c(=O)cc(-c4ccc5c(c4)CCCC5)[nH]c3ccc21,–,34,45,4.7,591,7,3,15,–,–
CCn1ccc2c3c(=O)cc(-c4ccc5c(c4)OCO5)[nH]c3ccc21,–,4.2,1.1,0.6,123,0.2,0.1,0.3,45300,23000
CCn1ccc2cc3c(=O)cc(-c4ccccc4)[nH]c3cc21,6200,–,–,–,–,–,–,–,–,–
CCn1ccc2c3c(=O)cc(-c4cccc5ccccc45)[nH]c3ccc21,–,0.5,4.2,1.9,17.1,0.5,0.7,0.4,> 100000,25700
